Laboratory results published in BindingDB's records for doi:10.7270/Q2CV4GM1 (D3R/Abbott, 2015).
Several values for one entry are separate records, joined by “and”; a condition that tells them apart may be missing. Equal entries are not always repeated.

Biological target: T1, Tyrosine-protein kinase SYK [355-635] (Homo sapiens, UniProt P43405)
T1 construct: 355-635
Assay: SYK assay_HTRF

IC50: 65.2 nM and 136 nM and 237 nM and 547 nM
Structure (SMILES): CS(=O)(=O)c1cccc(Nc2nccc(Nc3cccc4[nH]ncc34)n2)c1 [N4-(1H-indazol-4-yl)-N2-(3-(methylsulfonyl)phenyl)pyrimidine-2,4-diamine]
